From patent US9108905B2, “TRPA1 antagonists” (AbbVie Inc., priority 2008, dated 2015)

Amino acid sequences for entries named in this document (tags omitted).
UniProt O75762, whole entry: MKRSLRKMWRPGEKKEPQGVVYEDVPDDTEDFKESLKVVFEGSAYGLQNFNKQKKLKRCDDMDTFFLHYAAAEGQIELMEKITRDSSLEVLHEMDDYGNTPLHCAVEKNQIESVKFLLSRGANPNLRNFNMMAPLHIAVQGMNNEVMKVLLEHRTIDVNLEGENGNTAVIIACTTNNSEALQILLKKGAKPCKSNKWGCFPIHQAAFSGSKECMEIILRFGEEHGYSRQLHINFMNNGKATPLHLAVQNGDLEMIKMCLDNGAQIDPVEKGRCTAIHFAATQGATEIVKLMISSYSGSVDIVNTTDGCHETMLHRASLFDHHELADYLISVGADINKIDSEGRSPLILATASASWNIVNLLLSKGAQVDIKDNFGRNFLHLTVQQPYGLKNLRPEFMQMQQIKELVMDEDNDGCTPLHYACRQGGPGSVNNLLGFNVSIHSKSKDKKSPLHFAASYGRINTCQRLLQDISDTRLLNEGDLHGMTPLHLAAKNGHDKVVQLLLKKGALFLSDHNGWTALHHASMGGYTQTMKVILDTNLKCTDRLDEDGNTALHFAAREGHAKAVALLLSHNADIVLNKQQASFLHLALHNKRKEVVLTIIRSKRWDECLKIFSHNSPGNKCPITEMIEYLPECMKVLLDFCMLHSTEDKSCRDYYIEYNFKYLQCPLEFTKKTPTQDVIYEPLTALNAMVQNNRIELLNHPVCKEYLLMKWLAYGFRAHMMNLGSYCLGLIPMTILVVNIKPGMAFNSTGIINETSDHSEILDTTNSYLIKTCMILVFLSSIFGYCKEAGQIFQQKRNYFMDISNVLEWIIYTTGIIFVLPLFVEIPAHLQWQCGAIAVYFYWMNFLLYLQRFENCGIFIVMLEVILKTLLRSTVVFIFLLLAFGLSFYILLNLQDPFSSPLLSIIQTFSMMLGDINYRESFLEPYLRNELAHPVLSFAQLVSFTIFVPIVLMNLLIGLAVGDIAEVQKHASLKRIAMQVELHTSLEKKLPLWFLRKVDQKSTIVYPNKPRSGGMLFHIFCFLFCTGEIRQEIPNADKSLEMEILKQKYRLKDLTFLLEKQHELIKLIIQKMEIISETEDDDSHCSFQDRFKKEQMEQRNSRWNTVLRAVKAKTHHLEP

Experiments:
[1] = molecular target: Human TRPA1 (Homo sapiens (Human), UniProt O75762); assay: FLIPR based intracellular Ca2+ assay and membrane potential assay, inhibition of AITC-activated TRPA1; format: cell-based; details: read-out: Human TRPA1 IC50; Table 2; comparison of Compound A and Example 1
[2] = Pharmacokinetics after oral dose in fasted male Sprague-Dawley rats (plasma and brain)

In the case of CC(=C\c1ccc(F)cc1)/C(C)=N/O, the IC50 [1] is reported as 330 nM, the “F, rat (oral bioavailability) @ 10 μmol/kg” value ([2]; oral gavage, 10 μmol/kg, solution in 10% DMSO/PEG-400) is reported as 4% and the plasma/brain ([2]; rat, after oral administration, text calls it brain/plasma ratio) is reported as 0. For the same molecule, the Cmax ([2]; read-out: Cmax @ 10 μmol/kg, rat, oral, 10 μmol/kg, plasma) was 220 nM.
